Patent US20230321094A1, “COMBINATION THERAPIES WITH OLIG2 INHIBITORS” (Curtana Pharmaceuticals, Inc., priority 2020, published 2023)

Tested on: GBM8 cells
Details: EGFR inhibitor combined with 1-(3,4-dichlorophenyl)-3-(4-(3-(dimethylamino)propylamino)-6-methylpyrimidin-2-yl)urea, EGFR inhibitor added ~24 h after olig2 inhibitor, viability 72 hours later, CI<1 indicates synergy

| Structure (SMILES) | GBM8 CI (combination index) |
| --- | --- |
| C=CC(=O)Nc1cccc(Nc2nc(Nc3ccc(N4CCN(C(C)=O)CC4)cc3OC)ncc2C(F)(F)F)c1 [Rocilitinib] | 0.70 |
| COc1cc2c(Nc3ccc(Cl)c(Cl)c3F)ncnc2cc1OC[C@@H]1C[C@@H]2CN(C)C[C@@H]2C1 [XL-647] | 0.75 |
